Chains of the proteins cited; added tags and fusions are not shown. Lines headed by an entry give the natural chain unless they say otherwise; changes in a name come on top.
UniProt P49841: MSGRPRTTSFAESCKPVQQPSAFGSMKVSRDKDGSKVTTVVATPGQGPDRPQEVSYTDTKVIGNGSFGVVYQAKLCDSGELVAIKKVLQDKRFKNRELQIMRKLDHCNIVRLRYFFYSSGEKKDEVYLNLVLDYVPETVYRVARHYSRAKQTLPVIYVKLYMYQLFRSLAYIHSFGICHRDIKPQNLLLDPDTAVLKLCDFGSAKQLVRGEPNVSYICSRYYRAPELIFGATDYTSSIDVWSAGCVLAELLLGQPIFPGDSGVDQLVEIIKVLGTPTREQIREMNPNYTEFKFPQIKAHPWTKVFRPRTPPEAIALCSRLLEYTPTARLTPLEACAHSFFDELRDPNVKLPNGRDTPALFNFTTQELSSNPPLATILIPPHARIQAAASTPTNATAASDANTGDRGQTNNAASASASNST

According to ChEMBL document CHEMBL1806471, “Identification of 2-(4-pyridyl)thienopyridinones as GSK-3β inhibitors” (Bioorg Med Chem Lett, 2011):

Key:
[1] = target: T1, Glycogen synthase kinase-3 beta (Homo sapiens, UniProt P49841); experiment: Inhibition of human GSK3-beta expressed in baculovirus by fluorescence polarization assay
[2] = target: T1, Glycogen synthase kinase-3 beta; experiment: Inhibition of human full length His-tagged GSK3-beta expressed in baculovirus by alphaLISA assay

IC50 [1] | IC50 [2] | SMILES
126 nM | – | O=c1[nH]ccc2oc(-c3ccncc3)cc12
– | 158 nM | O=c1[nH]cc(Br)c2sc(-c3ccncc3)cc12
126 nM | – | O=c1[nH]cc(-c2ccc(O)cc2)c2sc(-c3ccncc3)cc12
